Values quoted from earlier work as cited in US20150274787A1, “METHOD FOR RECOMBINANT PRODUCTION OF LABYRINTHOPEPTINS AND FUNCTIONAL DERIVATIVES THEREOF” (priority 2011, published 2015).

Conditions: earlier biological characterization; cited from earlier work

In the case of CC(C)C[C@@H]1NC(=O)[C@]23CSC[C@H](NC(=O)[C@H](C)NC(=O)[C@H](Cc4ccccc4)NC1=O)C(=O)N[C@H](C(=O)O)CSSC[C@H](NC(=O)[C@@H]1CSC[C@]4(C[C@H](N)C(=O)N[C@@H](CC(=O)O)C(=O)N[C@@H](Cc5c[nH]c6ccccc56)C(=O)N4)C(=O)N[C@@H](CC(C)C)C(=O)N[C@@H](Cc4c[nH]c5ccccc45)C(=O)N[C@@H](CCC(=O)O)C(=O)N1)C(=O)N[C@@H](C2)C(=O)N[C@@H]([C@@H](C)O)C(=O)NCC(=O)N3 [LabA2], the “efficacy in an in vivo neuropathic pain model” value is given as “revealed an efficacy”.
